US8536171B2, “Method for obtaining 5-amino 2,3-dihydrophthalazine-1,4-dione alkali metal salts and their use in medicine” (Abidopharma PL SP. Z.O.O., priority 2009, dated 2013)

Tests used:
[1] = system: rats with experimental myocardial infarction; conditions: 5 mg per kg per 24 hours intramuscularly
Experimental: The animals of 230 to 258 g were subjected to ether narcosis for 1-3 minutes, Next, by the thoracotomy method there was achieved access to the anterior branch of the coronary artery and its lumen was closed by means of an electrode. The wound was closed by atraumatic sutures. […] The rats were divided in two groups.
The animals were being observed for 24 hours (every one in a separate cage). […] The second group of 10 rats (5 of each group) were killed after 5 days and the third group of 10 animals (5 of each group)—after 7 days. In all the rats there was performed postmortem macroscopic examination of hearts, pleura and abdominal cavity organs. The tissues were taken from the infarct focus for microscopic examination. They were retained in formalin and stained conventionally with H-E. Blood for biochemical tests was taken by heart puncture of 3 ml volume.

[2] = system: patients with acute and chronic pancreatitis; conditions: 25 patients
[3] = system: people after myocardial infarction; conditions: 15 patients

`Nc1cccc2c(=O)[nH][nH]c(=O)c12.[Na]` [II-Na salt, 5-amino-2,3-dihydrophthalazine-1,4-dione sodium salt] was tested, and the “reaction in the place of injection” value [1] was “neither pain reaction nor local inflammatory state”, the side effects [2] was “not observed significant side effects” and the side effects [3] was “no side effects”.
